Drawing on patent US11439607B2, “Use of senicapoc for treatment of neuropathic pain” (Paracelsus Neuroscience I, LLC, priority 2016, dated 2022), this text covers IC50 for one molecule.

The assay addresses human KCa3.1 (Homo sapiens, UniProt O15554). Kind of assay: QPatch electrophysiology on CHO-K1 cells expressing recombinant human KCa3.1. It is filed as cell-based. As to conditions: read-out: IC50, patch-clamp on CHO-KCa3.1 cells.

As to `NC(=O)C(c1ccccc1)(c1ccc(F)cc1)c1ccc(F)cc1` [Senicapoc], the IC50 was 10 nM.

The IC50 is the midpoint of a concentration-inhibition curve.
